Measured values as given in PMC5643385, “Probing ligand recognition of the opioid pan antagonist AT-076 at nociceptin, kappa, mu, and delta opioid receptors through structure-activity relationships” (Scientific Reports, 2017).

Protein sequences, listed by entry. Tags and fused reporters are not part of them. Lines headed by an entry give the natural chain unless they say otherwise; changes in a name come on top.
UniProt P35372, whole entry, looked up: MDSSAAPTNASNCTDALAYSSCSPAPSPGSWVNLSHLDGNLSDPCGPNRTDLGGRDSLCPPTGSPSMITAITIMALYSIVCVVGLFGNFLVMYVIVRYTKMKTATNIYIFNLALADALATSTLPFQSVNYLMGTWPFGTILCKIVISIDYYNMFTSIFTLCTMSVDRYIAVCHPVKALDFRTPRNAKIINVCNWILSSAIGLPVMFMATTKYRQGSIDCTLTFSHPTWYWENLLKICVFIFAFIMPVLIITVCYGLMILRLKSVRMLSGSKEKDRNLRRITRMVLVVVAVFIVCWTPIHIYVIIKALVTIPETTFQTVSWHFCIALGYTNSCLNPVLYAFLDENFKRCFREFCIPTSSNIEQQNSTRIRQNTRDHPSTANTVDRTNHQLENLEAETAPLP
UniProt P41145: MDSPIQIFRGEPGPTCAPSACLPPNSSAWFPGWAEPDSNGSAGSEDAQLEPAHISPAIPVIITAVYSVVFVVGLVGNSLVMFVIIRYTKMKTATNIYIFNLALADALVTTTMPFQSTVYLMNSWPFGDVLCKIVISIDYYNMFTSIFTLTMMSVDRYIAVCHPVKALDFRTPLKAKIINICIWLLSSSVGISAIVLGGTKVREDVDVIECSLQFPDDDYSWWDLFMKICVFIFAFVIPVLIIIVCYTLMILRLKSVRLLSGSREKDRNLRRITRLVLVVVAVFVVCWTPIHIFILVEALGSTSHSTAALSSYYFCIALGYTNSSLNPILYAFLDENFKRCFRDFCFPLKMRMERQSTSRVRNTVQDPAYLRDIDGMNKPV
UniProt P41143, whole entry, looked up: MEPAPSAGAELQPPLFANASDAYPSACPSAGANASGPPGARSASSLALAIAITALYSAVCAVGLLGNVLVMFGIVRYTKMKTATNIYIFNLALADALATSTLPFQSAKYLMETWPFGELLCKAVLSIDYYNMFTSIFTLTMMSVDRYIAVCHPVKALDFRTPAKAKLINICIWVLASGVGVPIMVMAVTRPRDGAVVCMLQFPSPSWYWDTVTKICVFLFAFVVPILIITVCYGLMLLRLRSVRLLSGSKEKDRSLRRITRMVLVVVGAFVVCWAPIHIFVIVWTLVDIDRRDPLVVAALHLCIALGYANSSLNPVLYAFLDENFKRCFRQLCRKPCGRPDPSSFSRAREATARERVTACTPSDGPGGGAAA
UniProt P41146: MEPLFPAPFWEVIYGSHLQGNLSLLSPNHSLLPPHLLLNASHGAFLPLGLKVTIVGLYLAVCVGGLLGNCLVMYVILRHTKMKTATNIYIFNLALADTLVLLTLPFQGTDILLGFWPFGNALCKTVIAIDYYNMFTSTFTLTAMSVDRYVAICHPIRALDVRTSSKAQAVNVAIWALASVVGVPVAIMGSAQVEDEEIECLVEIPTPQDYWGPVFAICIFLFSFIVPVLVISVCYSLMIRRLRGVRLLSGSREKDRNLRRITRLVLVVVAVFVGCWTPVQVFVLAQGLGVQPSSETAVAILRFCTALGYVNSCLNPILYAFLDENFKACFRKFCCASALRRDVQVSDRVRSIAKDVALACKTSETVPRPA

Legend:
human MOP receptor [1] = molecular target: T1, human MOP receptor (Homo sapiens, UniProt P35372); assay: [35S]GTPγS functional assay (intrinsic activity; Schild analysis vs DAMGO); assay type: biochemical; conditions: inhibition of agonist-induced [35S]GTPγS binding
human KOP receptor [2] = molecular target: T2, human KOP receptor (Homo sapiens, UniProt P41145); assay: Radioligand competition binding, [3H]U69,593, membranes of transfected CHO cells (Kappa-CN); conditions: for Ki: read-out: Receptor Binding, Ki KOP, [3H]U69,593 displacement, Cheng-Prusoff, mean ± SEM, at least three experiments in triplicate
human MOP receptor [3] = molecular target: T1, human MOP receptor; assay: Radioligand competition binding, [3H]DAMGO, membranes of transfected CHO cells; conditions: read-out: Receptor Binding, Ki MOP; [3H]DAMGO displacement; Cheng-Prusoff; mean ± SEM, at least three experiments in triplicate
human DOP receptor = human DOP receptor (Homo sapiens, UniProt P41143); assay: Radioligand competition binding, [3H]DPDPE, membranes of transfected CHO cells; conditions: read-out: Receptor Binding, Ki DOP; [3H]DPDPE displacement; Cheng-Prusoff; mean ± SEM, at least three experiments in triplicate
human KOP receptor [4] = molecular target: T2, human KOP receptor; conditions: Schild analysis, inhibition of agonist-induced [35S]GTPγS binding
human NOP receptor = human NOP receptor (Homo sapiens, UniProt P41146); assay: Radioligand competition binding, [3H]N/OFQ, membranes of transfected CHO cells; conditions: read-out: Receptor Binding, Ki NOP; [3H]N/OFQ displacement; Cheng-Prusoff; mean ± SEM, at least three experiments in triplicate

With CC(C)[C@@H](CN1CCC(N2CCc3ccccc32)CC1)NC(=O)[C@H]1Cc2ccc(O)cc2CN1 the “Antagonist Potency (pA2 ± SEM) MOP” value (human MOP receptor [1]) was 8.32, the Ki (human KOP receptor [2]) was 0.371 nM and the “Higher KOP affinity than AT-076” value (human KOP receptor [2]; vs AT-076) was 2–4 fold. It also gave a Ki (human MOP receptor [3]) of 7.68 nM.

CC(C)[C@@H](CN1CCC(N2C(=O)Cc3ccccc32)CC1)NC(=O)[C@H]1Cc2ccc(O)cc2CN1 was tested, and the “Antagonist Potency (pA2 ± SEM) MOP” value (human MOP receptor [1]) was 7.98, the Ki (human DOP receptor) was 249 nM and the “Antagonist Potency (pA2 ± SEM) KOP” value (human KOP receptor [4]) was 9.19 ± 0.16. For the same molecule, the Ki (human NOP receptor) was 91.2 nM, the Ki (human KOP receptor [2]) was 2.6 nM and the “Reduction of KOP affinity compared to 16” value (human KOP receptor [2]; vs 16) was 10 fold. For the same molecule, the Ki (human MOP receptor [3]) was 19.1 nM.
